Experimental findings from ChEMBL document CHEMBL5500414 (J Med Chem, 2024) are described below.

Chains of the proteins cited; added tags and fusions are not shown.
UniProt Q07820, whole entry, looked up: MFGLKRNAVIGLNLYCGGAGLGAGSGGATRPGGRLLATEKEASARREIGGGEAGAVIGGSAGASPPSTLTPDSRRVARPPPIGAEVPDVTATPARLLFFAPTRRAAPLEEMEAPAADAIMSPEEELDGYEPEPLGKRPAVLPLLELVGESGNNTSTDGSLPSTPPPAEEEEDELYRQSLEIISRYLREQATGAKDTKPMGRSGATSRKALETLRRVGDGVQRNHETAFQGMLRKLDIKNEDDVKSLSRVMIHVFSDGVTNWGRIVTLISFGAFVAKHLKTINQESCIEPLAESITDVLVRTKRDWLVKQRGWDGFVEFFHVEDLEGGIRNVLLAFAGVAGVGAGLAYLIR
UniProt O43521, whole entry, looked up: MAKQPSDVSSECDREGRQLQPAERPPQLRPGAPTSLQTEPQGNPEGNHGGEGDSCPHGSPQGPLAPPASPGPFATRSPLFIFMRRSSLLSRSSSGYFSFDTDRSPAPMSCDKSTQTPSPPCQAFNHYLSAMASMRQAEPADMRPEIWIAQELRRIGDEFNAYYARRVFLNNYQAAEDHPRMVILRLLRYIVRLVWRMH

Structures are written as SMILES. Calls of active or inactive are those of the source. The calls are words filed in the database; no cut-off is given here.

The test system of test [1] is Pfeiffer. Briefly: Inhibition of BFL-1/BIM interaction in human Pfeiffer cells assessed as decrease in BIM-associated BFL-1 level at 20 uM measured after 5 hrs by Co-IP assay. The class given is cell-based.
In test [2] the target is Induced myeloid leukemia cell differentiation protein Mcl-1/Bcl-2-like protein 11 (Homo sapiens) (UniProt Q07820+O43521). Briefly: Inhibition of MCL-1/BIM interaction in human Pfeiffer cells assessed as decrease in BIM-associated BFL-1 level at 20 uM measured after 5 hrs by Co-IP assay. It is filed as cell-based.
Test [3] relates to Pfeiffer. Nature of the test: Induction of apoptosis in human Pfeiffer cells assessed as increase in cleaved PARP level measured after 5 hrs by Western blot analysis. The class given is functional, cell-based. Particulars: dose 10-20 µM.
A further test deals with MOLM-13. Nature of the test: Antiproliferative activity against BFL-1 overexpressing isogenic human MOLM-13 cells assessed as inhibitory rate in presence of doxycycline. It is filed as functional, cell-based.
For test [4], the target named is T1, Bcl-2-related protein A1 (Homo sapiens) (UniProt Q16548).
T1 sequence (whole entry): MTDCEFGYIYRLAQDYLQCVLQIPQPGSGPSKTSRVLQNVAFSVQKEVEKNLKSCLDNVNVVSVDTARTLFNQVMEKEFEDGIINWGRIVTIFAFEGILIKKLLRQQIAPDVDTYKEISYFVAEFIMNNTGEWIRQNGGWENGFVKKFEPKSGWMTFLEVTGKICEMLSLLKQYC
Nature of the test: Inhibition of BFL-1 in BFL-1 overexpressing isogenic human MOLM-13 cells assessed as late apoptotic cells at 15 uM measured after 24 hrs in presence of doxycycline by flow cytometry based Annexin V-PE/7-ADD Apoptosis detection kit. It is filed as cell-based. Set-up: scale not given: the % may be the effect or the level left.

Test [5] concerns the target T1, Bcl-2-related protein A1 (Homo sapiens). Nature of the test: Inhibition of BFL-1 in BFL-1 overexpressing isogenic human MOLM-13 cells assessed as early apoptotic cells at 10 uM measured after 24 hrs in presence of doxycycline by flow cytometry based Annexin V-PE/7-ADD Apoptosis detection kit. It is filed as cell-based. Further details: scale not given: the % may be the effect or the level left. On the technique in general: A flow cytometer gives signals particle by particle.

The target is the same in test [6]. Nature of the test: Inhibition of BFL-1 in BFL-1 overexpressing isogenic human MOLM-13 cells assessed as early apoptotic cells at 20 uM measured after 24 hrs in presence of doxycycline by flow cytometry based Annexin V-PE/7-ADD Apoptosis detection kit. It is filed as cell-based. Further details: scale not given: the % may be the effect or the level left.
Test [7] shares this target. Nature of the test: Inhibition of BFL-1 in BFL-1 overexpressing isogenic human MOLM-13 cells assessed as enhancement of 1 uM venetoclax-induced late apoptotic cells at 10 uM measured after 24 hrs in presence of doxycycline by flow cytometry based Annexin V-PE/7-ADD Apoptosis detection kit. It is filed as cell-based. Set-up: scale not given: the % may be the effect or the level left.

Test [8] has the same target. Nature of the test: Inhibition of BFL-1 in BFL-1 overexpressing isogenic human MOLM-13 cells assessed as enhancement of 3 uM venetoclax-induced late apoptotic cells at 10 uM measured after 24 hrs in presence of doxycycline by flow cytometry based Annexin V-PE/7-ADD Apoptosis detection kit. It is filed as cell-based. Further details: scale not given: the % may be the effect or the level left.

Test [9] has the same target. Briefly: Inhibition of BFL-1 in BFL-1 overexpressing isogenic human MOLM-13 cells assessed as enhancement of 3 uM venetoclax-induced late apoptotic cells at 20 uM measured after 24 hrs in presence of doxycycline by flow cytometry based Annexin V-PE/7-ADD Apoptosis detection kit. Further details: scale not given: the % may be the effect or the level left. The class given is cell-based.

Test [10] has the same target. Nature of the test: Inhibition of BFL-1 in BFL-1 overexpressing isogenic human MOLM-13 cells assessed as enhancement of 1 uM venetoclax-induced early apoptotic cells at 10 uM measured after 24 hrs in presence of doxycycline by flow cytometry based Annexin V-PE/7-ADD Apoptosis detection kit. Further details: scale not given: the % may be the effect or the level left. The class given is cell-based.

Test [11] has the same target. Nature of the test: Inhibition of BFL-1 in BFL-1 overexpressing isogenic human MOLM-13 cells assessed as enhancement of 1 uM venetoclax-induced early apoptotic cells at 15 uM measured after 24 hrs in presence of doxycycline by flow cytometry based Annexin V-PE/7-ADD Apoptosis detection kit. The class given is cell-based. Set-up: scale not given: the % may be the effect or the level left.

Test [12] has the same target. Briefly: Inhibition of BFL-1 in BFL-1 overexpressing isogenic human MOLM-13 cells assessed as enhancement of 3 uM venetoclax-induced early apoptotic cells at 20 uM measured after 24 hrs in presence of doxycycline by flow cytometry based Annexin V-PE/7-ADD Apoptosis detection kit. The class given is cell-based. Set-up: scale not given: the % may be the effect or the level left.

Test [13] shares this target. Briefly: Inhibition of BFL-1 in BFL-1 overexpressing isogenic human MV4-11 cells assessed as late apoptotic cells at 10 uM measured after 48 hrs in presence of doxycycline by flow cytometry based Annexin V-PE/7-ADD Apoptosis detection kit. It is filed as cell-based. Further details: scale not given: the % may be the effect or the level left.
Test [14] shares this target. Briefly: Inhibition of BFL-1 in BFL-1 overexpressing isogenic human MV4-11 cells assessed as early apoptotic cells at 15 uM measured after 48 hrs in presence of doxycycline by flow cytometry based Annexin V-PE/7-ADD Apoptosis detection kit. The class given is cell-based. Set-up: scale not given: the % may be the effect or the level left.
Test [15] shares this target. Nature of the test: Inhibition of BFL-1 in BFL-1 overexpressing isogenic human MV4-11 cells assessed as enhancement of 1 uM venetoclax-induced late apoptotic cells at 10 uM measured after 48 hrs in presence of doxycycline by flow cytometry based Annexin V-PE/7-ADD Apoptosis detection kit. It is filed as cell-based. Further details: scale not given: the % may be the effect or the level left.

Test [16] has the same target. Nature of the test: Inhibition of BFL-1 in BFL-1 overexpressing isogenic human MV4-11 cells assessed as enhancement of 1 uM venetoclax-induced late apoptotic cells at 20 uM measured after 48 hrs in presence of doxycycline by flow cytometry based Annexin V-PE/7-ADD Apoptosis detection kit. It is filed as cell-based. Set-up: scale not given: the % may be the effect or the level left.

Test [17] shares this target. Nature of the test: Inhibition of BFL-1 in BFL-1 overexpressing isogenic human MV4-11 cells assessed as enhancement of 3 uM venetoclax-induced late apoptotic cells at 10 uM measured after 48 hrs in presence of doxycycline by flow cytometry based Annexin V-PE/7-ADD Apoptosis detection kit. The class given is cell-based. Set-up: scale not given: the % may be the effect or the level left.

Test [18] has the same target. Briefly: Inhibition of BFL-1 in BFL-1 overexpressing isogenic human MV4-11 cells assessed as enhancement of 1 uM venetoclax-induced early apoptotic cells at 15 uM measured after 48 hrs in presence of doxycycline by flow cytometry based Annexin V-PE/7-ADD Apoptosis detection kit. It is filed as cell-based. Set-up: scale not given: the % may be the effect or the level left.

For test [19] the target is unchanged. Nature of the test: Inhibition of BFL-1 in BFL-1 overexpressing isogenic human MV4-11 cells assessed as enhancement of 3 uM venetoclax-induced early apoptotic cells at 10 uM measured after 48 hrs in presence of doxycycline by flow cytometry based Annexin V-PE/7-ADD Apoptosis detection kit. It is filed as cell-based. Further details: scale not given: the % may be the effect or the level left.

Test [20] has the same target. Briefly: Inhibition of BFL-1 in BFL-1 overexpressing isogenic human MV4-11 cells assessed as enhancement of 3 uM venetoclax-induced early apoptotic cells at 20 uM measured after 48 hrs in presence of doxycycline by flow cytometry based Annexin V-PE/7-ADD Apoptosis detection kit. It is filed as cell-based. Further details: scale not given: the % may be the effect or the level left.

The target is the same in test [21]. Nature of the test: Inhibition of BFL-1 in BFL-1 overexpressing isogenic human MV4-11 cells assessed as enhancement of venetoclax-induced increase in cytochrome c release in mitochondria at 20 uM in presence of doxycycline by Western blot analysis.
The target is the same in test [22]. Briefly: Inhibition of BFL-1 in BFL-1 overexpressing isogenic human MV4-11 cells assessed as enhancement of venetoclax-induced increase in cleaved PARP level at 20 uM in presence of doxycycline by Western blot analysis. It is filed as cell-based. For orientation: Immunoblotting shows a protein as a band on a membrane.

`C=CC(=O)Nc1ccc2c(c1)CCC(CN1CCN(c3ccc(C(=O)O)c(Oc4cnc5[nH]ccc5c4)c3)CC1)=C2c1ccc(Cl)cc1CC`: the outcome (in the test with Pfeiffer [1]; in test [2]) was inactive. Also, the Activity result in the test with Pfeiffer [3] is “Dose-Dependent Effect”; in the test on MOLM-13, “Dose-Dependent Effect”; in [4], 4.16%; in test [5], 7.84%; in [6], 65.7%; in test [7], 6.25%. The Activity in [8] stood at 8.04%; in [9] it was 11%; in test [10], 56.8%; in test [11] it was 74.9%; in test [12], 78.6%; in test [13], 4.58%. Further, the Activity in [14] was 4.36%; in [15], 35.6%; in [16], 77.3%; in test [17], 44.1%; in [18], 9.28%; in test [19], 6.27%. Moreover, the Activity in test [20] came out at 12.4%. Besides, the result in test [21] and in test [22] was Active.
